{"source": "patent US8049063B2", "about": "“Rice bentazon and sulfonylurea herbicide resistant gene Cyp81a6” (Zhejiang University, priority 2005, dated 2011)", "test_system": "Norin 8m, 8077S, their F1 hybrid and F2 plants", "assay": "Allelism test: bentazon sprayed on leaves of bentazon sensitive lethal mutants and their hybrids", "assay_type": "in vivo, rice", "description": "FIG. 2. Allelism test of bentazon sensitive lethal sites in Norin 8m and 8077S. a: the plants before bentazon treatment, left: Norin 8m; right: 8077S; middle: the F1 hybrid of Norin 8m and 8077S. b: the plants one week after the bentazon treatment. The applied concentration of bentazon is 1250 mg/l.\nAs mentioned above, the Japanese scholar Mori obtained a bentazon sensitive lethal mutant Norin 8m by γ-ray radiation treatment of Norin 8 (Mori, 1984). […] In order to verify whether the bentazon sensitive loci in both 8077S and Norin 8m are allelic, we made a cross between 8077S and Norin 8m and obtained the F1 hybrid and its selfed F2 population containing 800 plants. […] To distinguish the loci originated from 8077S and that originated from Norin 8m, we named them as cyp81A6-1 and cyp81 A6-2, respectively."}
{"smiles": "CC(C)N1C(=O)c2ccccc2NS1(=O)=O", "note": "[bentazon]", "values": [{"measurement": "outcome of treated plants (both parents and F1)", "setting": "1250 mg/L sprayed on leaf surface at 9-10 leaves, Norin 8m, 8077S and F1, one week later", "value": "withered and died"}, {"measurement": "outcome of treated F2 plants", "setting": "1250 mg/L, 800 F2 plants from selfed F1 of 8077S x Norin 8m", "value": "withered and died"}]}
